Common to all, as to settings: fluorescein-labeled peptide, 20 mM Tris pH 7.5, 50 mM NaCl, 1 mM DTT, 0.01% Triton X-100, 25°C, average of three independent measurements, NB = no detectable binding
In assay [1] the target is T1, SMN (aa 80–170) (Homo sapiens, UniProt Q16637).
T1 construct: SMN (aa 80–170); His tag (pET28-MHL) (N); made in house; host or cells: Escherichia coli BL21 (DE3)
Kind of assay: Fluorescence polarization binding assay, SMN Tudor domain. As to the method:
(§1) Figure 1 Fluorescence polarization binding curves of TDRD3 (aa 520–633), SMN (aa 80–170), and SPF30 (aa 65–150) to the PIWIL1-R4 peptides. The buffer used in the fluorescence polarization assay is 20 mM Tris pH 7.5, 50 mM NaCl, 1 mM DTT and 0.01% Triton X-100. The data are measured at 25°C and corrected for background by subtracting the free-labeled peptide background. The Kd values are the average of three independent measurements.
(§2) All the regular and fluorescent peptides used this study were synthesized by Tufts University Core Services (Boston, USA). The fluorescence polarization assay was carried out as described before. The buffer used in the fluorescence polarization assay is 20 mM Tris pH 7.5, 50 mM NaCl, 1 mM DTT and 0.01% Triton X-100. An excitation wavelength of 485 nm and an emission wavelength of 528 nm are used. The data are measured at 25°C and corrected for background by subtracting the free-labeled peptide background. The data were collected by the Synergy 2 (BioTec, USA) fluorescence polarization program and were fit to one-site binding model using Origin 7 (MicroCal, Inc.). The Kd values are the average of three independent measurements.
(In general: Fluorescence polarisation rises when a labelled molecule tumbles more slowly, as on binding a larger partner.)

The chains behind the UniProt entries cited, without tags or fusion partners. Residues count along the entry.
UniProt Q16637, 80-170: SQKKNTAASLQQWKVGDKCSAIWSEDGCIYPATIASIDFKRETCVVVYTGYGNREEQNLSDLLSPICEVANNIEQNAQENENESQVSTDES
UniProt Q9H7E2, 520-633: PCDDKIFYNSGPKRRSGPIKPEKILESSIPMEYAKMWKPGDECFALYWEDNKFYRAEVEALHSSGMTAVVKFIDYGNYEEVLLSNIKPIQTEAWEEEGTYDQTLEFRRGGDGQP

The target of assay [2] is T2, SPF30 (aa 65–150) (Homo sapiens, UniProt O75940).
T2 construct: SPF30 (aa 65–150); His tag (pET28-MHL) (N); made in house; host or cells: Escherichia coli BL21 (DE3)
T2 sequence (O75940 65-150): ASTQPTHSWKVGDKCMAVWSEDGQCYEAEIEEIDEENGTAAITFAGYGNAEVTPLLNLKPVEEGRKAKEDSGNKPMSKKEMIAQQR
The assay is described as follows: Fluorescence polarization binding assay, SPF30 Tudor domain. As for the experimental part: as §1, §2

The target of assay [3] is T3, TDRD3 (aa 520–633) (Homo sapiens, UniProt Q9H7E2).
T3 construct: TDRD3 (aa 520–633); His tag (pET28-MHL) (N); made in house; host or cells: Escherichia coli BL21 (DE3)
Kind of assay: Fluorescence polarization binding assay, TDRD3 Tudor domain. As to the method:
TDRD3 contains a Tudor domain at its C-terminus. […] In order to characterize its binding specificity and affinity quantitatively, we performed a series of fluorescence polarization (FP) binding assays using our fluorescein-labeled peptide library, which includes GAR motif-containing SmD3 and PIWIL1 peptides, PGM motif-containing SmB peptides, and histone H3R2 peptides (Table 1 and Fig. 1). A low salt concentration (50 mM NaCl) is used in the FP binding assay due to the weak binding affinities of these proteins to their ligands. […]
Figure 1 Fluorescence polarization binding curves of TDRD3 (aa 520–633), SMN (aa 80–170), and SPF30 (aa 65–150) to the PIWIL1-R4 peptides. The buffer used in the fluorescence polarization assay is 20 mM Tris pH 7.5, 50 mM NaCl, 1 mM DTT and 0.01% Triton X-100. The data are measured at 25°C and corrected for background by subtracting the free-labeled peptide background. […]
All the regular and fluorescent peptides used this study were synthesized by Tufts University Core Services (Boston, USA). The fluorescence polarization assay was carried out as described before. The buffer used in the fluorescence polarization assay is 20 mM Tris pH 7.5, 50 mM NaCl, 1 mM DTT and 0.01% Triton X-100. […] The data are measured at 25°C and corrected for background by subtracting the free-labeled peptide background. […]

The structures appear in SMILES notation. Bounds are passed on as bounds.

In general, Kd refers to the constant that tells how readily two partners part at equilibrium.

For `C[C@H](NC(=O)[C@H](CCCNC(=N)N)NC(=O)CNC(=O)[C@H](CCCNC(=N)N)NC(=O)[C@H](C)NC(=O)[C@H](CCCNC(=N)N)NC(=O)[C@H](C)NC(=O)[C@H](CCCNC(=N)N)NC(=O)[C@H](C)NC(=O)[C@H](CCCNC(=N)N)NC(=O)CNC(=O)[C@@H](N)[C@@H](C)O)C(=O)N[C@@H](CCCNC(=N)N)C(=O)NCC(=O)N[C@@H](CCC(N)=O)C(=O)N[C@@H](CCC(=O)O)C(=O)O` [PIWIL1-R4un], the Kd in assay [1] was more than 300 µM; in assay [2], more than 500 µM; in assay [3], more than 500 µM.

The values above are taken from paper PMC3281842, “Crystal Structure of TDRD3 and Methyl-Arginine Binding Characterization of TDRD3, SMN and SPF30” (PLoS ONE, 2012).
